Molecular target: T1, Pin1 (Homo sapiens, UniProt Q13526)
T1 construct: host or cells: Escherichia coli BL21 (DE3)
Assay: Liquid chromatography-based protease-coupled PPIase activity assay, Pin1 (nagarse)
Assay type: biochemical
Conditions: 25 nM Pin1 + 50 mM PO4-
From the text: A small gap was opened on

Sequences of proteins named here, by UniProt entry; tags and fusion partners are left off. A line that says so, or that is headed by a name, gives the form on record, which may keep a tag or linker.
UniProt Q13526, with tags, fused parts or gaps: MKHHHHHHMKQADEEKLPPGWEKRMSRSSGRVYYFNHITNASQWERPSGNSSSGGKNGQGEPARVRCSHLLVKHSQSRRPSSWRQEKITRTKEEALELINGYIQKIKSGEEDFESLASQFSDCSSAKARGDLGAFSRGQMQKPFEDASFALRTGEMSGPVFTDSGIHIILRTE

Pin catalyzing cis to trans isomerization rate k, Exp. 2: 0.00215 s⁻¹
Structure (SMILES): O=P(O)(O)O [PO4-, inorganic phosphate, reference compound]

Source: PMC6370856, “Peptidyl prolyl cis/trans isomerase activity on the cell surface correlates with extracellular matrix development” (Communications Biology, 2019)
